Experiments:
Assay in all cases: purified protein
[1] = test system: Nc1ncnc2c1ncn2[C@@H]1O[C@H](COP(=O)(O)OP(=O)(O)OP(=O)(O)O)[C@@H](O)[C@H]1O; conditions: 1 mM C18:1 Δ9, 0.5 mM CoASH, 0.05-2.5 mM ATP, 10 mM MgCl2, 0.1% Triton X-100, pH 7.2, 37°C, printed unit mM conflicts with printed kcat/Km (implies µM)
CCCC(=O)O = conditions: 5 mM ATP, 0.5 mM CoASH, 30-300 µM FA, 10 mM MgCl2, 0.1% Triton X-100, pH 7.2, 37°C, printed unit mM conflicts with printed kcat/Km and FA range (implies µM)
CCCCCCCCCC(=O)O = conditions: 5 mM ATP, 0.5 mM CoASH, 30-300 µM FA, 10 mM MgCl2, 0.1% Triton X-100, pH 7.2, 37°C, printed unit mM conflicts with printed kcat/Km and FA range (implies µM)

Substance | Km [1] [mM] | kcat [1] [s⁻¹] | kcat (CCCC(=O)O) [s⁻¹] | kcat (CCCCCCCCCC(=O)O) [s⁻¹]
FadD1 (Pseudomonas aeruginosa PAO1) | 10.6 | 0.219 | – | –
FadD2 (Pseudomonas aeruginosa PAO1) | 10.9 | 0.187 | 0.172 | 0.187

— paper PMC2958839, “Multiple FadD Acyl-CoA Synthetases Contribute to Differential Fatty Acid Degradation and Virulence in Pseudomonas aeruginosa” (PLoS ONE, 2010)
